Source: patent US4835152A, “1-(4-Aminophenyl)-4-methyl-7,8-methylenedioxy-3,4-dihydro-5H-2,3-b enzodiazepine and acid addition salts thereof same” (Biogal Gyogyszergyar, priority 1986, dated 1989)

Assay: Dependence studies, DAF (drug admixed food) method
Details: 0.05% (w/w) in food, 6 weeks, average daily dose 40 mg/kg, two weeks after withdrawal

CC1Cc2cc3c(cc2C(c2ccc(N)cc2)=NN1)OCO3 (stereo not shown) [Example 1, 1-(4-aminophenyl)-4-methyl-7,8-methylenedioxy-3,4-dihydro-5H-2,3-benzodiazepine]
Withdrawal symptoms or signs of dependence: Withdrawal symptoms or signs of dependence were not observed
